These results are taken from ChEMBL document CHEMBL2413034, “Novel β-dicarbonyl derivatives as inhibitors of aminopeptidase N (APN)” (Bioorg Med Chem Lett, 2013).

Amino acid sequences for entries named in this document (tags omitted). A change or cut given only in a name is not applied to a line headed by its entry.
UniProt P15144: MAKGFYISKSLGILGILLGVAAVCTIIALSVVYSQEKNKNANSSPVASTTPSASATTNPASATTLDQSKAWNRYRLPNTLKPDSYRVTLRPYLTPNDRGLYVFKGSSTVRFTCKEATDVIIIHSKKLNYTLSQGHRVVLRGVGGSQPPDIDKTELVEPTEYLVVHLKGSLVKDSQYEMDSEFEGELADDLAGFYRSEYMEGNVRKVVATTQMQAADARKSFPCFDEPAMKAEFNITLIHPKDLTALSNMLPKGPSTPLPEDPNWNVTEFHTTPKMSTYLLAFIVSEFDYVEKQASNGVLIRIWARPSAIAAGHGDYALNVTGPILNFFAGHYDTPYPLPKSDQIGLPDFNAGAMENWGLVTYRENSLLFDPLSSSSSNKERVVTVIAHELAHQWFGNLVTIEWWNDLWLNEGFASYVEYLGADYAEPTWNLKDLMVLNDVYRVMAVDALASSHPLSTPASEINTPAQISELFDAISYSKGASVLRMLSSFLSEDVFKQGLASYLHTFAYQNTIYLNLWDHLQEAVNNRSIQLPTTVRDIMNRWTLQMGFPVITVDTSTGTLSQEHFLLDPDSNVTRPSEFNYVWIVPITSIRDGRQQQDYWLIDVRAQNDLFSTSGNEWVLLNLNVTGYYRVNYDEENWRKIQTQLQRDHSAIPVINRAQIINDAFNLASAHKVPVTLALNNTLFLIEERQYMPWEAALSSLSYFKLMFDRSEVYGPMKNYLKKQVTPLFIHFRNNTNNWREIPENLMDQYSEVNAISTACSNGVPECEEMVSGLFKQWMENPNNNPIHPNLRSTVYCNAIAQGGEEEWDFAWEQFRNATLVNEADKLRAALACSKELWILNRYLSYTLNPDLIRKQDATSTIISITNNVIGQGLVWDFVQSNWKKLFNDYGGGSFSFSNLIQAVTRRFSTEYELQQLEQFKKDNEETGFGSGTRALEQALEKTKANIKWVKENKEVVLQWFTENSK

Each structure is given as a SMILES string.

This assay has as its target Aminopeptidase N (Homo sapiens, UniProt P15144). Put plainly: Inhibition of aminopeptidase N (unknown origin).

In turn, `COc1cc(/C=C/C(=O)CC(=O)/C=C/c2ccc(O)c(OC)c2)ccc1O` [CURCUMIN] gave an IC50 of 10 µM.
